Tests used:
[1] = 5 mM
[2] = tested on: human liver microsomes (HLMs); assay: Low-dose (LC-MS/MS) metabolism / intrinsic clearance in human liver microsomes; settings: for metabolism / decay type: low dose regimen; for % Remaining (data based on MS): percent of OP remaining after incubation, low-dose regimen; for fast clearance rate / slower clearance rate: low-dose studies, biphasic decay; for fast clearance rate: fast phase (malathion 0.17 mM); for slower clearance rate: slow phase (malathion 0.17 mM)

For CCOP(=S)(OCC)Oc1nc(Cl)c(Cl)cc1Cl, the “Water solubility at the high concentration (NA in NMR columns)” value (shortened to “Water solubility”) [1] was “NA (NA for OPs that were not water soluble at the high concentration)”.

For Phosphamidon-I, the “metabolism / decay type” value [2] was “monophasic”.

In the case of CCCCSP(=O)(SCCCC)SCCCC, the “% Remaining (data based on MS)” value ([2]; listed as Tribufos-Fast) is reported as 10.00%.

With CNP(=O)(OC)Oc1ccc(C(C)(C)C)cc1Cl (stereo not drawn) the “% Remaining (data based on MS)” value [2] was 20.00%.

With COP(=S)(OC)SCC(=O)N(C)C=O the “metabolism / decay type” value [2] was “biphasic”, the fast clearance rate [2] was 24.56 µL/min/mg and the slower clearance rate [2] was 3.50 µL/min/mg.

In the case of Phosphamidon-II, the “metabolism / decay type” value [2] is reported as “monophasic” and the “% Remaining (data based on MS)” value [2] is reported as 22.00%.

In the case of COP(=S)(OC)SCN1C(=O)c2ccccc2C1=O, the “Water solubility” value [1] is reported as “NA (NA for OPs that were not water soluble at the high concentration)”.

With Dibrom the “metabolism / decay type” value [2] was “biphasic” and the “% Remaining (data based on MS)” value ([2]; listed as Dibrom-Fast) was 23.00%.

In the case of CCOP(=S)(Oc1ccc(C#N)cc1)c1ccccc1 (stereo not drawn), the “% Remaining (data based on MS)” value [2] is reported as 20.00%.

In the case of CCOP(=S)(OCC)Oc1cc(C)nc(N(CC)CC)n1, the “% Remaining (data based on MS)” value ([2]; listed as PPE-Fast) is reported as 60.00% and the “Water solubility” value [1] is reported as “NA (NA for OPs that were not water soluble at the high concentration)”.

With CC(C)OP(=O)(OC(C)C)SCc1ccccc1 the “% Remaining (data based on MS)” value [2] was 79.00%.

For CCOP(=O)(N=C1SCC(C)S1)OCC (stereo not drawn), the “% Remaining (data based on MS)” value [2] was 96.00%.

In the case of CCOP(=S)(OCC)ON=C(C#N)c1ccccc1Cl, the “% Remaining (data based on MS)” value [2] is reported as 20.00% and the “Water solubility” value [1] is reported as “NA (NA for OPs that were not water soluble at the high concentration)”.

With CCOP(=S)(OCC)Oc1cc(C)nc(C(C)C)n1 the “% Remaining (data based on MS)” value [2] was 32.00%.

For COP(=S)(OC)Oc1ccc(Sc2ccc(OP(=S)(OC)OC)cc2)cc1, the “% Remaining (data based on MS)” value [2] was 11.00%.

With CCCSP(=O)(OCC)SCCC the “Water solubility” value [1] was “NA (NA for OPs that were not water soluble at the high concentration)”.

In the case of CCOP(=S)(OCC)Oc1cnc2ccccc2n1, the “% Remaining (data based on MS)” value [2] is reported as 15.45%.

With CCOP(=O)(N=C1SCCS1)OCC the “% Remaining (data based on MS)” value [2] was 95.00%.

With COP(=S)(OC)Oc1cc(Cl)c(I)cc1Cl the “% Remaining (data based on MS)” value ([2]; listed as IFP-Fast) was 74.31%.

With CCOP(=S)(OCC)Oc1ccc(=O)n(-c2ccccc2)n1 the “% Remaining (data based on MS)” value [2] was 45.00%.

For CCOC(=O)c1cn2nc(OP(=S)(OCC)OCC)cc2nc1C, the “% Remaining (data based on MS)” value [2] was 42.00%.

With COP(=O)(NC(C)=O)SC (stereo not drawn) the “% Remaining (data based on MS)” value [2] was 91.90%.

For CCCCSP(SCCCC)SCCCC, the “metabolism / decay type” value [2] was “biphasic” and the “% Remaining (data based on MS)” value ([2]; listed as Merphos-Fast) was 72.00%.

In the case of COP(=O)(OC)O/C(=C\Cl)c1cc(Cl)c(Cl)cc1Cl, the “% Remaining (data based on MS)” value [2] is reported as 60.00% and the “Water solubility” value [1] is reported as “NA (NA for OPs that were not water soluble at the high concentration)”.

With COP(=S)(OC)Oc1ccc(SC)c(C)c1 the “% Remaining (data based on MS)” value [2] was 23.00%.

In the case of CCOC(=O)CC(SP(=S)(OC)OC)C(=O)OCC (stereo not drawn), the fast clearance rate [2] is reported as 2245.5 µL/min/mg, the slower clearance rate [2] is reported as 10.09 µL/min/mg and the “% Remaining (data based on MS)” value ([2]; listed as Malathion-Fast) is reported as 20.00%.

In the case of COc1nn(CSP(=S)(OC)OC)c(=O)s1, the “% Remaining (data based on MS)” value [2] is reported as 46.50%.

For COP(=O)(OC)OC1=C(Cl)C2C=CCC12 (stereo not drawn), the “% Remaining (data based on MS)” value [2] was 60.00%.

For CCOP(=O)(NC(C)C)Oc1ccc(SC)c(C)c1 (stereo not drawn), the “% Remaining (data based on MS)” value [2] was 50.00%.
